Source: PMC12332266 (Frontiers in Pharmacology, 2025)

Experiments:
[1] = test system: hiPSC-CM (iCell Cardiomyocytes^2); assay: RTCA CardioECR assessment (impedance and electrophysiology parameters)
Description: (§1) Culture media change was performed every 2 days.
After seeding on fibronectin-coated xCELLigence ePlates (Agilent Technologies, Inc. Santa Clara, CA, USA), iCell^2 CM were monitored continuously through impedance electrodes. The following impedance parameters were measured: Cell Index (CI, measure of cell “health” and monolayer integrity), beating rate (BR) and amplitude (CI Amplitude, magnitude of contraction). Electrophysiology-like parameters (Field Potential Duration (FPD), considered as a surrogate for QT in in vivo studies, and Spike Amplitude (SA), depolarization induced by Na^+ channel opening) were measured starting from day 4–6, following the monolayer formation. […] All RTCA CardioECR data were double normalized (DMSO control and the baseline) with no further statistical group comparison for the normalized parameters. The variability of the data within the treatment groups was assessed by standard deviation.

[2] = test system: hiPSC-CM (iCell Cardiomyocytes^2)
Description: as §1
Total RNA was extracted from hiPSC-CM using the miRNeasy 96 Kit (Qiagen, Hilden, Germany) following the manufacturer’s recommendations. After the extraction, RNA purity was assessed by NanoDrop™ 8000 Spectrophotometer (Thermo Fisher Scientific Inc.). 5–10 ng/μL of RNA per sample were reverse transcribed and pre-amplified by using the TaqMan™ Advanced miRNA cDNA Synthesis Kit (Thermo Fisher Scientific Inc.). The synthesized cDNA was used for RT-qPCR with selected TaqMan™ assays (Thermo Fischer Scientific Inc.). RT-qPCR was carried out following the Applied Biosciences TaqMan miRNA expression assay protocol on a ViiA7 instrument (Thermo Fisher Scientific, Inc.). […] Therefore, to maximize the number of drugs and concentrations, explored in the same study, we pooled the triplicates for intracellular profiling of miRNAs. Therefore, no statistical analysis was performed on the data of miRNA profiling in the pellets of hiPSC-CM.
Following RTCA CardioECR assessment, hiPSC-CM cell pellets were collected, and total RNA was extracted and purified to investigate miRNAs upregulation by RT-qPCR. […]

[3] = ref extensive literature search, cited from earlier work
[4] = 72-hour treatment, lowest concentration causing at least 20% change from baseline

## Endothelin-1
[1]; 72-hour treatment, at least 10% change
  Field Potential Duration MEC: 0.001 µM
[1]; 72-hour treatment, at least 20% change
  Contractility Amplitude MEC: 0.001 µM
[1]; 72-hour treatment, at least 40% change
  Spike Amplitude (SA) MEC: 0.0003 µM
[1]; [4]
  Beating rate (BR) MEC: ND (ND – not detected, magnitude of change was lower than 20%)
  Cell index (CI) MEC: ND (ND – not detected, magnitude of change was lower than 20%)
[1]; change ≥20%, Table 2
  RTCA, MEC (BR): ND (ND – not detected, magnitude of change was lower than 20% for CI/BR)
  RTCA, MEC (CI): ND (ND – not detected, magnitude of change was lower than 20% for CI/BR)
[2]
  miRNAs hiPSC-CM pellet, MEC overall: 0.0003 µM (miR-34a-5p, miR-126-3p, miR-133b, miR-146b-5p, miR-187-3p, miR-320a-5p)
  miRNAs upregulated at the MEC overall (hiPSC-CM pellet): 0.0003 µM (miR-34a-5p, miR-126-3p, miR-133b, miR-146b-5p, miR-187-3p, miR-320a-5p)
[3]; Supplementary Table 1
  Cmax total: 2 pM
[3]; Table 1
  Cmax total: 2 pM

Where two headings read alike, the source gives them in different places.
